Data as given in ChEMBL document CHEMBL3769405, “Discovery of Potent and Selective Inhibitors of Phosphodiesterase 1 for the Treatment of Cognitive Impairment Associated with Neurodegenerative and Neuropsychiatric Diseases” (J Med Chem, 2016).

By UniProt entry, the sequences of proteins in these tests, tags left out. Where a name states a change or a piece, a line headed by the entry shows the natural chain unless it says otherwise.
UniProt O76083: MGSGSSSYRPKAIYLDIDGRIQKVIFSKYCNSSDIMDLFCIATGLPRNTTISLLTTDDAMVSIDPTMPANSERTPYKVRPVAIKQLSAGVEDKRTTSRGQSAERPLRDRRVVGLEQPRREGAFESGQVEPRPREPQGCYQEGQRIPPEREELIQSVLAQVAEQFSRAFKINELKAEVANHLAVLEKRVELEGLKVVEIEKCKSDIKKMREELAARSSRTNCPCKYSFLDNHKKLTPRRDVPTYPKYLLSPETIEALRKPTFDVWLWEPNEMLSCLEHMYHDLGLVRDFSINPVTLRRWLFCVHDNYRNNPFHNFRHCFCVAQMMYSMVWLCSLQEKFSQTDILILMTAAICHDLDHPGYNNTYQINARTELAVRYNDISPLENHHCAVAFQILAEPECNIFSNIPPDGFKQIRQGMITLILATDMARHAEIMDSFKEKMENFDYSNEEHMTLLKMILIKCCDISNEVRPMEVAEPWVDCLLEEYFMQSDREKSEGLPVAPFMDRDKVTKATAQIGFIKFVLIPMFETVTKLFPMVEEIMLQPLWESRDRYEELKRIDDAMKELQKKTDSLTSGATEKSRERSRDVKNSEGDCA
UniProt O00408, whole entry: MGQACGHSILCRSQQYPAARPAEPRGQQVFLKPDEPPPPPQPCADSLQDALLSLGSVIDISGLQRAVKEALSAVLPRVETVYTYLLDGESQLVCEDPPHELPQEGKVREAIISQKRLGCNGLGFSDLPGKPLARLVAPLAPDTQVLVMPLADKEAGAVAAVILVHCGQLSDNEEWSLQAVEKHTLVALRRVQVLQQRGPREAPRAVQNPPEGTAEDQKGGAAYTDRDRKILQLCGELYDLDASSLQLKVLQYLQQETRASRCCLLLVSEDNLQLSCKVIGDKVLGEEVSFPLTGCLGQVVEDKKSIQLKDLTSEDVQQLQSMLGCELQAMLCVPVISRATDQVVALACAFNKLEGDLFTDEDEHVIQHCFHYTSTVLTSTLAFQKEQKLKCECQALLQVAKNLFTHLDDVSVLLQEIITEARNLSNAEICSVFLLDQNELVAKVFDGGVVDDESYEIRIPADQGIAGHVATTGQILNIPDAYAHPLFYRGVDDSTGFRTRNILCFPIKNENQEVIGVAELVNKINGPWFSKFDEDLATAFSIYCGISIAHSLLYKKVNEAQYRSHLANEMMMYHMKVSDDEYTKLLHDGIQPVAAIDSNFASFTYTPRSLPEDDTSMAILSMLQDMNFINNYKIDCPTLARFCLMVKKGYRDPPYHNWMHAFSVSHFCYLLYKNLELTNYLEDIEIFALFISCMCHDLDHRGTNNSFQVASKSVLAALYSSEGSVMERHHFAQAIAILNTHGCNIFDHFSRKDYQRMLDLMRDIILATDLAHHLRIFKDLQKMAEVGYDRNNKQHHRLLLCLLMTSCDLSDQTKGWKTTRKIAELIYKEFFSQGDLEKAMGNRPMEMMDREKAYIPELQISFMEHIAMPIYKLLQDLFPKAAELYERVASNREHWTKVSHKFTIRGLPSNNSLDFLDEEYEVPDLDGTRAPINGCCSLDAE

Tests used:
[1] = molecular target: High affinity cGMP-specific 3',5'-cyclic phosphodiesterase 9A (Homo sapiens, UniProt O76083); assay: Inhibition of recombinant full lenght human PDE9A using fluorescent labeled cGMP as substrate after 15 mins by IMAP assay
[2] = molecular target: cGMP-dependent 3',5'-cyclic phosphodiesterase (Homo sapiens, UniProt O00408); assay: Inhibition of recombinant full length human PDE2A using fluorescent labeled cAMP as substrate after 15 mins by IMAP assay

Ki [1]: 17 µM
Ki [2]: 18 µM
SMILES: CN1C(=O)c2c(nn(Cc3ccc(-c4cccc(F)n4)cc3)c2Nc2ccccc2)N2C1=N[C@@H]1CCC[C@@H]12.O=P(O)(O)O [LENRISPODUN PHOSPHATE]
